PMC3142620 (Chemistry & biology, 2011)

Target: Raf-1 (Homo sapiens, UniProt P04049)

- Raf-1 probe-labeling after live cell treatment: significant increases
SMILES: CN(C)CCOc1ccc(-c2nc(-c3ccncc3)c(-c3ccc4c(c3)CC/C4=N\O)[nH]2)cc1 [SB590885]
